{"source": "patent US20030143729A1", "about": "(Synaptic Pharmaceutical Corporation, priority 1992, published 2003)", "key": {"rat GAT-2": {"target": "T1, rat GAT-2 (Rattus norvegicus, UniProt P31646)", "T1 sequence (P31646 1-602)": "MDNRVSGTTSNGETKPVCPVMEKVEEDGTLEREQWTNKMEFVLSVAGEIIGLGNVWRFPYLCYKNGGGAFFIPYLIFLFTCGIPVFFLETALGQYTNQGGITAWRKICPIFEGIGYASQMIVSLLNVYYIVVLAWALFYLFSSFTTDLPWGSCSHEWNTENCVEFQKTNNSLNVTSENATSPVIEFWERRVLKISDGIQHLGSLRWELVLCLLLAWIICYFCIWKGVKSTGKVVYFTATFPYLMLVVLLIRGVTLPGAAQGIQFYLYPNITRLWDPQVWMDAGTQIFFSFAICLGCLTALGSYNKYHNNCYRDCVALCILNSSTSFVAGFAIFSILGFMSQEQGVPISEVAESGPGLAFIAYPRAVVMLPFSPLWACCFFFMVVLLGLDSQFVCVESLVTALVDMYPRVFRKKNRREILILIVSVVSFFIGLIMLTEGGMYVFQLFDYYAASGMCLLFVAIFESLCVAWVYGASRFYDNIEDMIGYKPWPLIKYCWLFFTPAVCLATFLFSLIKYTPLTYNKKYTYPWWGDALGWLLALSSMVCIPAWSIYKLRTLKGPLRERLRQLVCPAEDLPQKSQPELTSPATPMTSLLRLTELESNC"}, "GAT-3": {"target": "T2, GAT-3 (Rattus norvegicus, UniProt P31647)", "T2 sequence (P31647 1-627)": "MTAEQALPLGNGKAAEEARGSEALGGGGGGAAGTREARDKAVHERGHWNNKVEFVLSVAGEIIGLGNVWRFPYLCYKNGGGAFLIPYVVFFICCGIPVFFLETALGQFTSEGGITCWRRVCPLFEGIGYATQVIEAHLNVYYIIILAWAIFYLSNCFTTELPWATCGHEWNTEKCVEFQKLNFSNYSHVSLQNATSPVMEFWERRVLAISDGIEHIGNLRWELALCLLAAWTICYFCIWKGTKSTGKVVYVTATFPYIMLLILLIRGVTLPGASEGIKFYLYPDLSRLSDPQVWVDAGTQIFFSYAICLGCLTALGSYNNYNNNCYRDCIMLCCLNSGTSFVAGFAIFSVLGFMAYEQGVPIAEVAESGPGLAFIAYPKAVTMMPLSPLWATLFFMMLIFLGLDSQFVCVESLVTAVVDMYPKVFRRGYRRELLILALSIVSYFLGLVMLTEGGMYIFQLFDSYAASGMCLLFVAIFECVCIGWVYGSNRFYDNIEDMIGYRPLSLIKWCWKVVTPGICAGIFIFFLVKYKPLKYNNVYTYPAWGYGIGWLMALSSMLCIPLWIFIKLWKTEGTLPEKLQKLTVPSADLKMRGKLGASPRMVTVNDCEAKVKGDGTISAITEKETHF", "assay": "[3H]GABA uptake by COS cells transfected with GAT-3 (rB8b or K438-rB8b)", "type": "cell-based", "conditions": "read-out: % Inhibition of [3H]GABA uptake, GAT-3"}, "Type 1 astrocytes": {"system": "Type 1 astrocytes", "assay": "[3H]GABA uptake in Type 1 astrocyte cultures", "type": "cell-based", "conditions": "Rattus norvegicus, read-out: IC50 for inhibition of [3H]GABA uptake, Type 1 astrocytes"}, "neuronal cultures": {"system": "neuronal cultures", "assay": "[3H]GABA uptake in primary neuronal cell cultures", "type": "cell-based", "conditions": "Rattus norvegicus, Neuron, read-out: IC50 for inhibition of [3H]GABA uptake, Neurons"}, "GAT-2": {"target": "T3, GAT-2 (Rattus norvegicus, UniProt P31646)", "T3 construct": "randomly primed GAT-2 full-length or GAT-3 truncated or full-length cDNA clones; expressed in transfected cells; host or cells: COS cells, transient, plasmid pEVJB-rB14b", "T3 sequence (P31646 1-602)": "T1 sequence (P31646 1-602)", "assay": "[3H]GABA uptake by COS cells transfected with GAT-2 (rB14b)", "type": "cell-based", "conditions": "read-out: % Inhibition of [3H]GABA uptake, GAT-2"}, "rat brain aggregates": {"system": "rat brain aggregates", "assay": "[3H]GABA uptake by brain aggregates", "type": "cell-based", "conditions": "read-out: IC50 for inhibition of [3H]GABA uptake, rat brain aggregates, control"}, "O-2A/Type 2 astrocytes": {"system": "O-2A/Type 2 astrocytes", "assay": "[3H]GABA uptake in O-2A/Type 2 astrocyte cultures", "type": "cell-based", "conditions": "Rattus norvegicus"}, "GAT-1": {"target": "GAT-1 (Rattus norvegicus, UniProt P23978)", "assay": "cell-based"}, "TAUT": {"target": "T4, TAUT (Rattus norvegicus, UniProt P31643)", "T4 sequence (P31643 1-621)": "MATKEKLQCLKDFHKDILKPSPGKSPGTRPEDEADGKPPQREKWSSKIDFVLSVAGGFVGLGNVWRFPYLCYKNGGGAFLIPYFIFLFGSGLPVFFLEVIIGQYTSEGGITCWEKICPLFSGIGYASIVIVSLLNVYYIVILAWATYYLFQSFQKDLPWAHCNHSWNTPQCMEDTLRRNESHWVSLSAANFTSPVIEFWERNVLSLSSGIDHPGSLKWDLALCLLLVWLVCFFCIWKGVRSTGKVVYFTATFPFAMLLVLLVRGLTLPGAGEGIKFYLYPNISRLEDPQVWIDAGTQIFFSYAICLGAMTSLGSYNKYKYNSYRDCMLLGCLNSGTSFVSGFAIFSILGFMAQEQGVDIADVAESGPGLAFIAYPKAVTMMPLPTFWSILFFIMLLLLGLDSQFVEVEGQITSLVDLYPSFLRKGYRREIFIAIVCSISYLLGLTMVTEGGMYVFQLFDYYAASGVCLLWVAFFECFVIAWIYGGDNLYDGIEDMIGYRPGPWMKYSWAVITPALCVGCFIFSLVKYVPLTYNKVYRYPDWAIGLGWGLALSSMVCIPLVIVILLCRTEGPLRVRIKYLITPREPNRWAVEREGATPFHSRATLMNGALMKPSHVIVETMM", "assay": "[3H]taurine uptake, full competition curves at cloned TAUT (transient transfection, COS cells)", "type": "cell-based"}}, "note": "Where two headings read alike, the source gives them in different places.", "data": [{"smiles": "O=C(O)C1CCCNC1", "note": "(racemic) [nipecotic, nipecotic acid]", "values": [{"measurement": "IC50", "setting": "rat GAT-2", "value": "38 ± 4", "unit": "µM"}, {"measurement": "inhibition at 10 µM", "setting": "GAT-3", "value": "12 ± 6", "unit": "%"}, {"measurement": "IC50", "setting": "Type 1 astrocytes", "value": "315 ± 100", "unit": "µM"}, {"measurement": "IC50", "setting": "neuronal cultures", "value": "18 ± 5", "unit": "µM"}, {"measurement": "inhibition at 10 µM", "setting": "GAT-2", "value": "5 ± 5", "unit": "%"}, {"measurement": "IC50", "setting": "rat brain aggregates", "value": "7 ± 0.8", "unit": "µM"}, {"measurement": "IC50", "setting": "O-2A/Type 2 astrocytes; read-out: IC50 for inhibition of [3H]GABA uptake, O-2A/Type 2 astrocytes", "value": "12 ± 2", "unit": "µM"}, {"measurement": "IC50", "setting": "O-2A/Type 2 astrocytes; read-out: IC50 for inhibition of [3H]GABA uptake, O-2A/Type 2 astrocytes with NNC-711", "value": "61 ± 20", "unit": "µM"}, {"measurement": "inhibition at 10 µM", "setting": "GAT-1", "value": "51 ± 5", "unit": "%"}, {"measurement": "IC50", "setting": "TAUT", "value": 2030, "unit": "µM"}]}]}
